Assay results: patent US11331337B2, “Heparin and heparan sulphate oligosaccharides” (Agency for Science, Technology and Research, priority 2017, dated 2022)

Legend:
Smad 1/5/9 = assay: BMP-2-induced Smad 1/5/9 phosphorylation by Western blotting in C2C12 cells; type: cell-based, murine; settings: BMP-2 100 ng/mL, 5 μg/mL
Procedure: C2C12 murine myoblast cells were cultured in DMEM, 10% FCS and 100 U/mL penicillin/streptomycin at 37° C. in 5% CO2. For experiments, cells were seeded at 2×10^4 cells/cm2 in tissue culture treated 12-well plates. After 24 h, cells were washed and media was replaced with treatment media (maintenance media with 5% FCS) with or without BMP-2 (100 ng/mL) and heparin, heparin oligosaccharides or desulfated heparins (5 μg/mL). At the indicated time points (24, 48 and 72 h), cells were washed with PBS and lysed with RIPA buffer in the presence of protease inhibitors (Merck-Millipore). Total protein was quantified using the BCA assay and subsequently separated by SDS-PAGE (5 μg total protein per condition). Proteins were then transferred to nitrocellulose membranes and blocked for 1 h in blocking buffer (Tris-buffered saline containing 5% (w/v) non-fat dry milk and 0.05% (v/v) Tween 20). Incubation with primary antibodies diluted at 1:1000 (pSmad 1/5/9), 1:500 (Smad 1/5/8) or 1:5000 (actin) was carried out overnight at 4° C. in blocking solution. Membranes were washed three times with Tris-buffered saline containing 0.05% (v/v) Tween 20 and incubated with IgG-specific peroxidase-conjugated secondary antibodies, diluted 1:10000 in blocking buffer. Blots were then washed and developed using SuperSignal West Pico Chemiluminescent substrate (Thermo Scientific) on Hyperfilm (GE Healthcare) and scanned. Blots are representative of three independent experiments.

C2C12 cells = assay: Osteogenic differentiation and mineralization (Alizarin red); type: cell-based, murine; settings: BMP-2 100 ng/mL, 5 μg/mL, 12 days
Procedure: C2C12 cells were maintained as described above and seeded at 5×10^3 cells/cm2 in tissue culture treated 12-well plates. Cells were cultured in osteogenic media (DMEM low glucose, 5% (v/v) FCS, 100 U/mL penicillin/streptomycin, 10 mM μ-glycerophosphate and 50 μg/mL ascorbic acid 2-phosphate) with or without BMP-2 (100 ng/mL) and heparin variants (5 μg/mL) for 12 days, with media being replenished every three days. Cells were washed with PBS and fixed with ice cold methanol for 20 min at −20° C. After fixation, cells were washed with water and stained with Alizarin red solution (0.1% (w/v), pH 4.3) for 20 min at room temperature with gentle agitation. Cells were then washed three times with water and imaged using a scanner. Alizarin red dye was extracted with 10% (v/v) acetic acid, neutralized with 10% (w/v) ammonium hydroxide and quantified using spectrophotometry (absorbance at 405 nm). Images are representative of at least three independent experiments and quantified Alizarin red stain represents mean±S.D. of three independent experiments.

Sprague Dawley rats = assay: Rat ectopic bone formation assay; type: in vivo; settings: 8 weeks
Procedure: Thirteen female, Sprague Dawley rats weighing 120-150 g had four hind limb muscle pockets surgically created, two per limb. Each pocket was randomly filled with one of the following treatments; (1) Polycaprolactone tube (PT), (2) PT+collagen sponge (CS) (Ctrl), (3) PT+CS+BMP-2 (5 μg), (4) PT+CS+heparin (25 μg)+BMP-2 (5 μg), (5) PT+CS+dp8 (25 μg)+BMP-2 (5 μg), (6) PT+CS+dp10 (25 μg)+BMP-2 (5 μg), (7) PT+CS+dp12 (25 μg)+BMP-2 (5 μg), (8) PT+CS+de-2-O sulfated heparin (25 μg)+BMP-2 (5 μg) (9) PT+CS+de-6-O sulfated heparin (25 μg) +BMP-2 (5 μg, (10) PT+CS+de-N-sulfated heparin (25 μg)+BMP-2 (5 μg). There were 4 replicates for groups (1-3) and 5 replicates for groups (4-10). The doses and ratio of BMP-2 and heparin were based on those used in previous studies. […] All samples were assessed with 2D x-rays, μ-CT and histology to assess the extent of bone mineral deposition. […]
A μ-CT scanner (Skyscan 1076; Skyscan, Belgium) was utilized to scan the harvested specimens (resolution=35 μm; scanning width=68 mm) as per our previous methods. […] The total bone volume within the ROI was quantified by assigning a pre-determined threshold for total bone content. […]
Specimens were fixed in 10% formalin (neutral buffered) under vacuum for one week. […] All sections were examined with an Olympus Stereo (SZX12) and upright (BX51) fluorescence microscopes.

B1: BMP-2: recombinant bone morphogenetic protein 2 purchased from R&D Systems (protein, UniProt P12643 283-396, looked up)
Bone morphogenetic protein 2: QAKHKQRKRLKSSCKRHPLYVDFSDVGWNDWIVAPPGYHAFYCHGECPFPLADHLNSTNHAIVQTLVNSVNSKIPKACCVPTELSAISMLYLDENEKVVLKNYQDMVVEGCGCR
Smad 1/5/9 phosphorylation (Smad 1/5/9; 24 h): detectable | Smad 1/5/9 phosphorylation (Smad 1/5/9; 48 h): detectable | Smad 1/5/9 phosphorylation (Smad 1/5/9; 72 h): no longer detectable; also recorded: barely detectable | mineralization (Alizarin red stain) (C2C12 cells): not sufficient to induce mineralization | increase in bone volume compared to control (Ctrl) (Sprague Dawley rats; 5 μg BMP-2 on collagen sponge, μ-CT): ~16 fold | bone tissue in histological sections (Sprague Dawley rats; 5 μg BMP-2 with or without 25 μg): deposition of a calcified bone matrix

“Also recorded” adds a separate entry of the source.
